Measurements from US20230192660A1 (priority 2020, published 2023).

By UniProt entry, the sequences of proteins in these tests, tags left out. Residues count along the entry.
UniProt P07711, 114-333 limits assumed: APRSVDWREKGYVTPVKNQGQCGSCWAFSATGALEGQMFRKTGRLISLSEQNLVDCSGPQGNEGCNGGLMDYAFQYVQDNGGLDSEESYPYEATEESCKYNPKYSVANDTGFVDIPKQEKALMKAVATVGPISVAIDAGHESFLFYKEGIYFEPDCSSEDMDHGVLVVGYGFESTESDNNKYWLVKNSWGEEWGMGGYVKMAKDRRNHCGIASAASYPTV

Assays:
Human Cathepsin L = Human Cathepsin L (Homo sapiens, UniProt P07711); details: read-out: IC50 HCathepsin L; 0.01 ng/uL Cathepsin L, pH 5.5, 2 mM DTT

`CC(C)(C)NC(=O)N[C@H](C(=O)N1C[C@@H]2CCC[C@@H]2[C@H]1C(=O)N[C@@H](C[C@@H]1CCNC1=O)C(=O)C(N)=O)C(C)(C)C` was tested, and the CC50 (Huh7 cells) was > 100 µM, the CC50 (A549-ACE2 cells) was > 100 µM and the IC50 (Human Cathepsin L) was 38 µM.

In the case of `CC(C)(C)C(=O)N[C@H](C(=O)N1C[C@H]2[C@@H]([C@H]1C(=O)N[C@@H](C[C@@H]1CCNC1=O)C(=O)C(N)=O)C2(C)C)C(C)(C)C`, the CC50 (Huh7 cells) is reported as > 100 µM and the CC50 (A549-ACE2 cells) is reported as > 100 µM.

`CC1(C)[C@@H]2[C@@H](C(=O)N[C@@H](C[C@@H]3CCNC3=O)C(=O)C(N)=O)N(C(=O)OCc3ccccc3)C[C@@H]21` was tested, and the CC50 (Huh7 cells) was > 100 µM, the CC50 (A549-ACE2 cells) was > 100 µM and the IC50 (Human Cathepsin L) was 1.3 µM. For the same molecule, the “Caco-2 Permeability Papp A-B” value (Caco-2; A-B) was <0.2 10-6 cm/s and the “Caco-2 Permeability Papp B-A” value (Caco-2; B-A) was 1.3 10-6 cm/s.
